Screening data as filed in PubChem BioAssay.
A selection: hits, their analogues and other compounds. The true share with any hit is near 0.73%.
Xi reactivation – activators of X-chromosome reactivation in mouse fibroblasts. activation, % at 7.58 µM. hit rate 0.055% among 360,000. XiGFP mouse fibroblasts, % GFP-positive cells imaging, 3 d; cells co-treated with 5-aza-dC sensitizer; scaled so ellipticine positive control = 100%. AID 743238;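 active = mean normalized replicate activation at least 10% and every replicate at or above 10%; inconclusive = only one of the two criteria met; inactive = mean below 10% and not all replicates reach 10%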;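 also: 0% = median of on-plate neutral control wells and 100% = ellipticine 6 µM median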
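Schedule: 3 d treatment, 15 min room-temperature fixation; system: 68-5-11 XiGFP fibroblast line; buffer or medium: DMEM plus 5-aza-dC sensitizer; control set: ellipticine 6 µM positive control; compound: one concentration, pinned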
RAD52 inh – RAD52 (human) annealing inhibition | P43351 | inhibition, % at 18.7 µM | recombinant RAD52 DNA annealing, FRET fluorescence | hit rate 0.46% among 360,000;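 active = every replicate showing at least 50% inhibition; inconclusive = mean inhibition at least 50% but not in every replicate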
RAD54 inh – inhibitors of human RAD54 branch migration; Q92698; inhibition, % at 10.4 µM; RAD54 Holliday junction branch migration, FAM/BHQ fluorescence; hit rate 0.14% among 360,000;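 active = mean normalized replicate activity at least 40 and at least half of replicates scoring 40 or more; inconclusive = only one of the two criteria met; inactive = mean below 40 and under half of replicates reaching 40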;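 also: 0% = median of neutral control wells and 100% = median of positive control wells; inhibitors cause a drop in the FAM fluorescence signal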
E-sel inducer – E-selectin induction on HUVECs | hit rate 0.37% among 260,000 | HUVEC E-selectin immunofluorescence imaging; normalized: neutral wells 0, TNF-alpha wells 100 | P16581 | AID 686992 | activation, % at 7.58 µM;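 active = mean E-selectin-positive cell signal at least 10% of the positive control, reached in at least 60% of replicates, without over 20% cell loss; inconclusive = no rule given, readout overlaps actives, possibly toxicity-flagged; inactive = the rest, including those meeting only one limit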
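Test system: HUVEC; input: 3,000 HUVEC/well; measured by: immunofluorescence imaging; read-out: % PE-positive cells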
UUG fidelity – modulators of start codon recognition fidelity in yeast; S. cerevisiae UUG-firefly luciferase reporter, luminescence/redox ratio; AID 602363; 350,000 tested, 0.13% active; activity score, % at 18.7 µM;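 active = replicate mean at a twofold rise or more, about +100% in these data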;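 also: firefly luciferase made from a UUG start codon reports start codon fidelity; reporter light over untreated wells divided by growth signal over untreated wells; some hits fall short of that in this replicate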
DNA binder FP – counter-screen for RAD52 inhibitors: DNA binding compounds. hit rate 8% among 1,000. Salmon sperm DNA/acridine orange FP displacement. AID 652128. shares compounds with RAD52 inh. AC50, µM;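 active = fitted half-maximal concentration for signal loss at or below twice the highest dose tested, in every separate run, actives reach about 64 µM in these data; inconclusive = runs disagree, or flat partial signal loss, or poor fit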
* hit, by the source's call; i = inactive; ? = inconclusive; . = not tested or not shown; ! = not confirmed by another sample.

1	C[C@H]1CNCCN1c1ccc(N2CC[C@@H](O)C2)c(C#N)c1
2	Cc1cc(N2CCNC[C@@H]2C)ccc1N1CC[C@@H](O)C1
3	OC12ONC(c3ccccn3)C1N1CCC2CC1 (stereo unspecified)
4	O=C(Cc1cccnc1)N1CCCCN2[C@@H](CO)[C@H](c3ccc(C#CC4CC4)cc3)[C@@H]2C1
5	Nc1ccc(CC2=NCCN2)cc1
6	COc1ccc(OC(=O)N(C)C[C@H]2OCc3ccccc3-c3c(n(C)c4ccccc34)C(=O)N([C@@H](C)CO)C[C@@H]2C)cc1
7	Clc1ccc2sc(C3CCNCC3)nc2c1
8	COc1ccc(C#Cc2ccc([C@H]3[C@H]4CN(C(=O)Cc5cccnc5)CCCCN4[C@H]3CO)cc2)cc1

assay / compound	1	2	3	4	5	6	7	8
Xi reactivation	0	1	0	.	0	0	0	0
RAD52 inh	-5	96*	80*	10	84*	21	56*	-29
RAD54 inh	.	.	19	-4	.	.	4	0
E-sel inducer	0	1	-6	.	0	0	.	0
UUG fidelity	.	.	-21	2	.	.	-19	10
DNA binder FP	.	i	i	.	63µM*	.	i	.

Quoted from above: compounds 3 to 4
3	OC12ONC(c3ccccn3)C1N1CCC2CC1 (stereo unspecified)
4	O=C(Cc1cccnc1)N1CCCCN2[C@@H](CO)[C@H](c3ccc(C#CC4CC4)cc3)[C@@H]2C1

assay / compound	3	4
Xi reactivation	0	.
RAD52 inh	80*	10
RAD54 inh	19	-4
E-sel inducer	-6	.
UUG fidelity	-21	2
DNA binder FP	i	.

Continuation.
9	FC(F)(F)CN1C[C@@H]2C(c3ccc(Br)cc3)[C@H](C1)N2CC1CC1 (stereo partly specified)
10	COc1cc2c(cc1OC)-c1c(OC)c(OC)cc3c1C(C2)N(C)CC3 (stereo unspecified)
11	COc1ccc2c(c1OC)C(=O)O[C@H]2[C@@H]1c2cc3c(cc2CCN1C)OCO3
12	COc1cc2c(cc1OC)-c1c3c(cc4c1[C@@H](C2)N(C)CC4)OCO3
13	CCN1[C@@H]2Cn3c(ccc(-c4cccc(OC)c4)c3=O)[C@H]1[C@@H](C(=O)OC)[C@@H]2CO
14	FC(F)(F)CN1C[C@@H]2C(c3ccccc3)[C@H](C1)N2CC1CC1 (stereo partly specified)
15	CN(C)c1ccc(/C=C/C=C/c2sc3ccccc3[n+]2C)cc1
16	C[n+]1c(-c2ccccc2)sc2ccccc21

assay / compound	9	10	11	12	13	14	15	16
Xi reactivation	0	.	0	0	0	0	0	0
RAD52 inh	.	71*	-8	100*	0	.	63*	-7
RAD54 inh	.	62*	0	104*	9	.	14	-3
E-sel inducer	.	.	-2	0	0	.	70*	.
UUG fidelity	.	-26	-7	-11	.	.	15	-9
DNA binder FP	.	i	.	i	.	.	?	.

17	CN(C)c1ccc(/C=C/c2cc[n+](C)c3ccccc23)cc1
18	NCCc1cc(O)c(O)cc1O
19	CC12CNCC(C)(CNC1)C2O (stereo unspecified)
20	CCC(=O)N1[C@@H]2Cn3c(ccc(-c4cccc(F)c4)c3=O)[C@H]1[C@@H](C(=O)OC)[C@@H]2CO
21	COC(=O)C[C@@H]1CC[C@H]2NC[C@H](O)COC[C@@H]2O1
22	N#Cc1cccc(-c2ccc([C@H]3[C@H](CO)N4CCCCN(C(=O)Cc5ccccc5)C[C@@H]34)cc2)c1
23	CN1CC[C@@H]2CN[C@H](c3ccccc3Br)C[C@@H]21

assay / compound	17	18	19	20	21	22	23
Xi reactivation	0	0	.	0	0	0	1
RAD52 inh	64*!	90*!	57*	-17	-4	-51	71*
RAD54 inh	.	-3	26	-3	-3	0	.
E-sel inducer	110*	0	.	0	0	-1	0
UUG fidelity	.	-8	-18	.	-7	1	.
DNA binder FP	8.3µM*	i	i	.	.	.	i
